Results reported in ChEMBL document CHEMBL2385045, “Discovery of novel 4-(2-fluorophenoxy)quinoline derivatives bearing 4-oxo-1,4-dihydrocinnoline-3-carboxamide moiety as c-Met kinase inhibitors” (Bioorg Med Chem, 2013).

Molecular target: Hepatocyte growth factor receptor (Homo sapiens, UniProt P08581)
Test: Inhibition of c-Met (unknown origin)
How it was run: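 HTRF kinase assay on plates precoated with 20 µg/mL poly(Glu,Tyr) 4:1. ATP (10 mM solution) in 50 mM HEPES pH 7.0 buffer with DTT, MgCl₂, MnCl₂ and 0.1% NaN₃. Compound in 1% DMSO; reaction started with purified kinase and run 30 min at 25 °C. Stopped with Streptavidin-XL665 plus TK antibody cryptate and read at 320/615. Inhibition relative to enzyme and no-enzyme controls; IC50 from the inhibition curves.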

IC50: 1 nM
SMILES: COc1cc2nccc(Oc3ccc(NC(=O)c4c(C)n(C)n(-c5ccccc5)c4=O)cc3F)c2cc1OC
